Target: T1, acetylcholinesterase (Mus musculus, UniProt P21836)
T1 construct: The mouse brain was homogenised by means of a 5-fold amount of a 100 mM phosphate buffer (pH 8.0) to prepare an enzyme sample; from tissue; host or cells: brain of male ddY mice, 5 to 7 weeks old (Japan SLC)
T1 sequence (P21836 32-614): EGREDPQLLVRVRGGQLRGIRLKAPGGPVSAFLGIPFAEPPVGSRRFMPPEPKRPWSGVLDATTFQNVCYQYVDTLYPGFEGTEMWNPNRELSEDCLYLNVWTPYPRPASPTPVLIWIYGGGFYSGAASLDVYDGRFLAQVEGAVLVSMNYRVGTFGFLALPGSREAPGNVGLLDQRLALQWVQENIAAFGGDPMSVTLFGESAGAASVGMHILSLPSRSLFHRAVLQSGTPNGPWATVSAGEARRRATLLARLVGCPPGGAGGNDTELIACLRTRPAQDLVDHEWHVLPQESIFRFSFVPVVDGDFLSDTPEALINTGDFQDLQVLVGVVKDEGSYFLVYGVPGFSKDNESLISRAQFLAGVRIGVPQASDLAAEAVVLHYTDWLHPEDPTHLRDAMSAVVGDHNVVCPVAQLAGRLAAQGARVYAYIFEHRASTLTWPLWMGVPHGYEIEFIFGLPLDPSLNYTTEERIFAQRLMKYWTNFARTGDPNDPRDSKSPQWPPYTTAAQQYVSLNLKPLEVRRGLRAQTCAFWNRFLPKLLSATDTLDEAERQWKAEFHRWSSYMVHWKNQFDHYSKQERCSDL
Test: Assay of acetylcholinesterase inhibitory activity (Elman's method, mouse brain homogenate)
Assay type: biochemical
Conditions: 100 mM phosphate buffer (pH 8.0), incubated for 30 minutes at room temperature, acetylthiocholine as substrate, read-out: Acetylcholinesterase inhibiting activity (IC₅₀)

Substance Eseline [reference compound] has an IC50 of 10 nM.

Reference: EP0562832A1, “Indole and indazole derivatives, for the treatment and prophylaxis of cerebral disorders, their preparation and their use” (priority 1992, dated 1993)
